Test system: AD brain-derived tau fibrils
Assay: Negative-stain EM and quantitative EM (qEM) of tau fibrils after compound incubation
Conditions: 33 micrographs per condition

With O=C(Nc1cccc(C(F)(F)F)c1)N1c2ccccc2Sc2ccccc21 the “fibril number by quantitative EM (qEM)” value was “corresponding reduction in fibril density was not seen”.
